System: PGHS-2 (Cyclooxygenase-2)
Test: Formation of PGHS-2 in LPS-induced monocytes (method after Brideau et al., human whole blood assay)
Format: cell-based
Conditions: LPS-induced Monozyten, 24 Std.; R-Ibuprofenoyl-CoA 0.5, 0.25, 0.05 mM; Ibuprofen, razemisch 1.0, 0.1, 0.05 mM; Abbildung 2
Description: Inkubation von LPS-induzierten Monozyten (24 Std.). […] Methode nach: BRIDEAU, C., KARGMAN, S., LIU, S., DALLOB, A.L., EHRICH, E.W., RODGER, I.W. & CHAN, C.C. […] A human whole blood assay for clinical evaluation of biochemical efficacy of cyclooxygenase inhibitors. Inflamm. Res., 45, 68-74.

## CC(C)Cc1ccc(C(C)C(=O)O)cc1 (racemic) [razemischem Ibuprofen, Ibuprofen]
  Bildung von PGHS-2 (Cyclooxygenase-2): im Gegensatz
